Reference: US5089479A, “Adhesion of Mycoplasma pneumoniae and Mycoplasma hominus to sulfatide” (priority 1988, dated 1992)

Test system: M. pneumoniae
Experiment: M. pneumoniae adhesion to immobilized glycoproteins adsorbed on plastic
Assay type: binding, Mycoplasma pneumoniae strain M129
Details: for amount of glycoprotein coated that promotes adhesion: coated wells
Method: Glycoproteins dissolved in 0.01 M sodium phosphate buffer, pH 7.4, containing 150 mM NaCl, 1 mM CaCl2, and 0.01% NaN3 were adsorbed onto plastic polyvinylchloride […] microtiter plates by incubation for 16 hours at 4° C. The unbound proteins were removed, and the wells were filled with tris-BSA and incubated for 30 minutes at room temperature. The wells were rinsed with RPMI1640 containing 25 mM HEPES, pH 7.3, and 1% bovine serum albumin. M. pneumoniae strain M129 labelled with [^3 H]-palmitate were dispersed in RPMI-BSA by passing four times through a 26 gauge needle, and 50 μl of the suspension was applied to the wells. After incubation for 60 minutes at 37° C., the wells were washed five times with saline and the labelled M. pneumoniae bound to the proteins were quantified by scintillation counting in Aquasol. […]
Adhesion of labelled M. pneumoniae to WiDr cells on glass cover slips was determined as described previously. For inhibition studies, dextran sulfate and 3'-sialyllactose were dissolved in RPMI-BSA and the pH was adjusted to 7.4 with NaOH. The inhibitors were added to wells containing washed cover slips with attached WiDr cells or blank cover slips preincubated in medium or tris-BSA. Labelled M. pneumoniae were added immediately and incubated with slow rocking for sixty minutes at 37° C. After the coverslips were washed by dipping six times in saline, bound M. pneumoniae were determined by scintillation counting in Aquasol. […] After washing to remove the unbound organisms, the bound mycoplasma were determined by scintillation counting. Binding to uncoated wells was 3% of the applied radioactivity.
FIG. 7 illustrates the effect of neuraminidase treatment on M. pneumoniae binding to immobilized glycoproteins. […] [^3 H]-labelled M. pneumoniae binding was determined as described above.
^1 Binding of [^3 H]-M. pneumoniae was determined to polyvinyl […]
proteins. Relative binding activities of the proteins were determined by […]

| Substance | amount of glycoprotein coated that promotes adhesion | Relative binding activity (relative to fetuin = 1.0, from amount for half maximal binding, mean of 2 or 3 experiments) |
| --- | --- | --- |
| hCG α-subunit: α-subunit of human chorionic gonadotropin | less than 10 ng | 0.8 |
| hCG: human chorionic gonadotropin | less than 10 ng | – |
